The target of this assay is T1, Human V2 Vasopressin Receptor (Homo sapiens, UniProt P30518).
T1 construct: expressed in transfected cells; host or cells: mouse fibroblast cell line LV-2 (membrane preparation)
Briefly: Binding to membranes of mouse fibroblast cell line (LV-2) transfected with the cDNA expressing the human V2 vasopressin receptor. The method, then: Binding to Membranes of Mouse Fibroblast Cell Line (LV-2) Transfected with the cDNA Expressing the Human V2 Vasopressin Receptor
Flasks of 175 ml capacity, containing attached cells grown to confluence, are cleared of culture medium by aspiration. The flasks containing the attached cells are rinsed with 2x5 ml of phosphate buffered saline (PBS) and the liquid aspirated off each time. Finally, 5 ml of an enzyme free dissociation Hank's based solution (Specialty Media, Inc., Lafayette, NJ) is added and the flasks are left undisturbed for 2 min. The content of all flasks is poured into a centrifuge tube and the cells pelleted at 300 x g for 15 min. […] The protein content is determined by the Lowry method and the receptor membranes are suspended in 50.0 mM Tris.HCl buffer containing 0.1 mM phenylmethylsulfonylfluoride (PMSF) and 0.2% bovine serum albumin (BSA) to give 2.5 mg receptor protein per ml of suspension.
For binding experiments, the following is added in ml volume to wells of a 96 well format of a microtiter plate: 100.0 ml of 100.0 mM Tris.HCl buffer containing 0.2% heat inactivated BSA, 10.0 mM MgCl2 and a mixture of protease inhibitors: leupeptin, 1.0 mg %; aprotinin, 1.0 mg %; 1,10-phenanthroline, 2.0 mg %; trypsin inhibitor, 10.0 mg % and 0.1 mM PMSF, 20.0 ml of [^3H] […] Non specific binding is assessed in the presence of 1.0 mM of unlabeled ligand, added in 20 ml volume. […]

By UniProt entry, the sequences of proteins in these tests, tags left out.
UniProt P30518, whole entry: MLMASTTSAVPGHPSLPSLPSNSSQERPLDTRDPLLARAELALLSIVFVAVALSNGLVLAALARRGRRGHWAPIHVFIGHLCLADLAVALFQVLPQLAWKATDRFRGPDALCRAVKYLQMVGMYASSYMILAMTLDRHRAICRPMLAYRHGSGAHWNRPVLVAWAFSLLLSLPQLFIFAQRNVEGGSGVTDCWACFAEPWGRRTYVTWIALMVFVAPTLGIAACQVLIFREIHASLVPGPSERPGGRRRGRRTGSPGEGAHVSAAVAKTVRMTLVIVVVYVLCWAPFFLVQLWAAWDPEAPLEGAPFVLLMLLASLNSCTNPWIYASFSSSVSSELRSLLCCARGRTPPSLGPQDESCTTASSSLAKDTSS

Molecules are shown by their SMILES.

Experimental findings from EP1021444B1, “3-CARBOXAMIDE DERIVATIVES OF 5H-PYRROLO[2,1-c][1,4]-BENZODIAZEPINES” (Wyeth, priority 1996, dated 1998) are described below.

What is called IC50 is the point on the concentration scale where inhibition reaches its midpoint. A low value points to higher potency.

In the case of `O=C(Nc1ccc(C(=O)N2Cc3ccc(C(=O)O)n3Cc3ccccc32)c(Cl)c1)c1ccccc1-c1ccccc1` [Example 7, 10-{4-[(Bipheny-2-carbonyl)-amino]-2-chloro-benzoyl)-10,11-dihydro-5H-benzo[e]pyrrolo[1,2-a][1,4] diazepine-3-carboxylic acid], the IC50 turned out to be 4.3 nM.
The value for `CN1CCN(C(=O)c2ccc3n2Cc2ccccc2N(C(=O)c2ccc(NC(=O)c4ccccc4-c4ccccc4)cc2Cl)C3)CC1` [Example 9] was 3.3 nM.
